Laboratory results from patent US12414990B2, “Use of HLA-A*11:01-restricted hepatitis B virus (HBV) peptides for identifying HBV-specific CD8+ T cells” (AGENCY FOR SCIENCE, TECHNOLOGY AND RESEARCH, priority 2019, dated 2025).

Tested on: HLA-A*11:01-restricted antigen-specific CD8+ T cells in patient's PBMC
Assay: Highly multiplexed combinatorial pMHC tetramer staining with mass cytometry (epitope mapping, frequency of antigen-specific CD8+ T cells)
Conditions: patients with detected epitope-specific CD8+ T cells / patients tested, Immune Tolerant (IT) group

Sequence: RVIDPRRCLK
- Hits (Freq > 0.002%) IT: 1/8
